Results from PubChem BioAssay AID1021 (Emory University Molecular Libraries Screening Center, 2008).
The list shows a part of the results, in another mix than the full data. Active and inactive are the calls of the source.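 The calls were made as follows: active = compounds that cut the binding signal by more than half at the single screening dose; inactive = the rest.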

Protein sequences, listed by entry. Tags and fused reporters are not part of them.
UniProt Q07820, whole entry, looked up: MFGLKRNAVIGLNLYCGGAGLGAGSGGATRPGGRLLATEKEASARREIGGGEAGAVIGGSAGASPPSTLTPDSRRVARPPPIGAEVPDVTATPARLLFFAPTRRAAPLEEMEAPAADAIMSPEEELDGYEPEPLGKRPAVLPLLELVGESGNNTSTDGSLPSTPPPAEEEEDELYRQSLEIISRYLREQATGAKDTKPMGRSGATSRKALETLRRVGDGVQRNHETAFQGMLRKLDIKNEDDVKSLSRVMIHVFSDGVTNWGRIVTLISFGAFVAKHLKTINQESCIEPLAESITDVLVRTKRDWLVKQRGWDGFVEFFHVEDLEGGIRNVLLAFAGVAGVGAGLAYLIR

molecular target: Induced myeloid leukemia cell differentiation protein Mcl-1 (Homo sapiens) (UniProt Q07820); test: Mcl-1/Bid binding inhibitors, primary screen, biochemical, TR-FRET, 1536-well (AID 1021); conditions: TR-FRET Mcl-1/Bid-Dy647 peptide binding, at 21.7 µM, stronger effect = higher value;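 also: His-tagged Mcl-1 with europium anti-His antibody binding Bid BH3 peptide; 0% = Mcl-1 plus peptide wells and 100% = peptide-only wells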

SMILES | inhibition
O=P1(Nc2ncccn2)COc2ccccc2OC1 | inactive: -4.15%
O=C(/C=C/c1ccccc1)OC1CN2CCC1CC2 (stereo not given) | inactive: 5.27%
CN(C)C1(CNC(=O)c2ccc(S(C)(=O)=O)cc2)CCCCC1 | inactive: -5.17%
CC1CCC(C(C)C)C(OP(=O)(Nc2ccccn2)c2ccccc2)C1 (stereo not given) | inactive: -14.8%
Cc1nn(-c2ccccc2)c2c1P(=O)(N1CCOCC1)N(C)C(c1ccccc1)=N2 (stereo not given) | inactive: -2.36%
O=[N+]([O-])c1ccc2c(c1)nnn2O | inactive: 12%
CCOP1(=S)c2c(C)nn(CCC#N)c2N=C(c2ccc(F)cc2)N1C (stereo not given) | inactive: -7.21%
CN(C(=O)Cc1ccccc1)[C@@H]1CC[C@]2(CCCO2)C[C@H]1N1CCCC1 | inactive: -32.7%
NC(=O)Nc1ccc([As](=O)(O)O)cc1 | inactive: -25.2%
Nc1ccccc1[As](=O)(O)c1ccccc1 | inactive: -0.67%
O=C(O)COc1ccc([As](=O)(O)O)cc1[N+](=O)[O-] | inactive: 14.6%
CS(=O)(=O)c1cc([N+](=O)[O-])c2no[n+]([O-])c2c1 | inactive: 33.1%
O=P(Nc1nccs1)(Oc1ccccc1)Oc1ccccc1 | inactive: -24.1%
O=P(Nc1nccs1)(c1ccccc1)c1nc2ccccc2s1 (stereo not given) | inactive: -5.48%
CCOP1(=S)c2c(C)nn(CCC#N)c2N=C(c2ccccc2F)N1C (stereo not given) | inactive: -4.22%
CCOP(=O)(Nc1cccc2ccccc12)OCC | inactive: -0.84%
COc1cc(C2NCCC3(OCCO3)C2(C)C)cc(OC)c1OC (stereo not given) | inactive: -14.2%
CCCOP(=S)(Nc1nc(N)cc(=O)[nH]1)OCCC | inactive: -106%
Cc1ccc(NCCc2c([N+](=O)[O-])cc([N+](=O)[O-])cc2[N+](=O)[O-])cc1 | inactive: -65.5%
Nc1cccc2c([As](=O)(O)O)cccc12 | inactive: -20.9%
Cc1cccc(OCC(=O)OC2CN3CCC2CC3)c1 (stereo not given) | inactive: 3.15%
O=[As](O)(c1cccc(O)c1)c1cccc(O)c1 | inactive: -21.4%
O=[As](O)(O)c1cccnc1 | inactive: -1.81%
COc1cc(C(=O)NCC2(N3CCOCC3)CCCCC2)cc(Cl)c1OC(C)C | inactive: -21.2%
O=C(OC1CN2CCC1CC2)c1ccc(Cl)cc1 (stereo not given) | inactive: -5.32%
